Laboratory results published in US20220073922A1.

Amino acid sequences for entries named in this document (tags omitted). Chains listed by the source or under a name are the forms on record and can include a tag or linker.
UniProt P15692, other isoform, or with tags, fused parts or gaps limits assumed: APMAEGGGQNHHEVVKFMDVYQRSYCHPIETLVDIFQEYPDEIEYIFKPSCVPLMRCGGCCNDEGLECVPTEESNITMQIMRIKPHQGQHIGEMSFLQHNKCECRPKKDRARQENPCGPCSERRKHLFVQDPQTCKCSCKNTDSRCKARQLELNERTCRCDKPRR

What was measured:
[1] = biological target: human VEGF-165 (human) (UniProt P15692); experiment: magnetic-bead partitioning binding assay read by flow cytometry; bound fraction against VEGF-165 concentration (1e-12 to about 1e-8 M), Langmuir one-site fit; how Lucentis was immobilised is not described
[2] = biological target: human VEGF-165 (human) (UniProt P15692); experiment: receptor competition assay: His-tagged human VEGF-165 (0.1 nM) on beads with 1 nM human VEGF Receptor 1 and varied Lucentis; bound receptor fraction by flow cytometry, dose-response inhibition fit; blocked partner: VEGF Receptor 1
[3] = biological target: human VEGF-165 (human) (UniProt P15692); experiment: receptor competition assay: His-tagged human VEGF-165 (0.1 nM) on beads with 1 nM human VEGF Receptor 2 and varied Lucentis; bound receptor fraction by flow cytometry, dose-response inhibition fit; blocked partner: VEGF Receptor 2

pKd [1]: 8.54
pIC50 [2]: 8.44
pIC50 [3]: 8.44
Substance: Lucentis® (Fab)

pIC50, pKd: −log10 of the molar value.
